According to patent publication EP1870419A2, “Modulators of beta-amyloid peptide aggregation comprising D-amino acids” (Praecis Pharmaceuticals Incorporated, priority 1999, dated 2000):
“And” between values parts separate entries of the source, which are not always exact repeats. Equal entries are not always repeated. Where two headings read alike, the source gives them in different places.

The chains behind the UniProt entries cited, without tags or fusion partners. Residues count along the entry.
UniProt P05067, 672-711: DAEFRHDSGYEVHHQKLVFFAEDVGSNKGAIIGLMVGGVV

Molecular target: T1, Aβ fibrils (Homo sapiens, UniProt P05067)
T1 construct: aging 1 ml aliquots of a 200 µM Aβ 1-40 peptide solution
Assay: Fibril binding assay (competition with radiolabelled compound, filtration)
Conditions: read-out: Fibril binding Kd's cmpd
Experimental: The following materials are needed for the Fibril binding assay: Millipore multifilter apparatus; 12 x 75 glass tubes; GF/F 25 mm glass filters; PBS/0.1 % tween 20 at 4°C (PBST); Aβ fibrils; radioactive compound; nonradioactive compound; Eppendorf repeat pipettor with tips; labels; forceps; and vacuum.
In this assay, each sample is run in triplicate. The "aged" Aβ fibril is first prepared approximately 8 days in advance by aging 1 ml aliquots of a 200 µM Aβ 1-40 peptide solution in 4%DMSO/PBS for 8 days at 37°C with rocking. Such "aged" Aβ peptide can be tested directly on cells or frozen at -80°C.
The 200 µM Aβ fibril is diluted in PBST to yield a 4 µM solution (320 µl in 16 ml PBST). 100µl aliquots of this solution are added per tube with the repeat pipettor.
The β-amyloid modulator compound (200µL) is then added to the appropriate tube containing the Aβ fibril.
The radioactively labeled β-amyloid modulator compound is prepared using standard radioactive safety protocols by making a dilution into a PBS/0.1% tween-20 solution such that there is a final concentration of 20,000 dpm per 100 µL. 100 µl aliqouots of the radioactively labeled β-amyloid modulator compound are added per tube using the repeat pipettor. The samples are covered with parafilm and incubated at 37 °C inside plastic radioactivity bags overnight.
To filter the samples, the filters are pre-wetted in a small volume of PBST. Two Millipore multifiltration apparati are set with GF/F filters in each filtration slot following the instructions from the manufacturer. The samples are removed from the 37 °C incubator and each sample is filtered using a small volume (~5 ml) of cold PBST buffer. The sample tube is then washed with two additional 5 mL volumes of cold PBST buffer. The vacuum is allowed to pull to a semi dry filter for approximately 2 minutes after adding the last sample and the filter is transferred to a labelled tube for iodination counting. One minute counts are recorded, the data is plotted, and the Prism program (GraphPAD) is used to analyze the graph, according to the manufacturer's instrutions.

[1] = Table III, 3-point assay, approximate

| Substance | Kd (Table I) | also measured |
| --- | --- | --- |
| TFA·H-(l-D-Cha-D-Cha-vl)-NH2 [PPI-1326] | – | Kd (Table II): 0.56 nM |
| TFA·H-(ivffi)-NH2 [PPI-1038] | 0.652 nM | – |
| TFA·N-methyl-(lffvl)-NH2 [PPI-1020] | 0.601 nM | – |
| TFA·H-(l-D-Cha-fvl)-NH2 [PPI-1322] | – | Kd (Table II): 1.2 nM |
| TFA·H-(D-Nle-vffa)-NH2 [PPI-1041] | 1.61 nM | – |
| TFA·H-(lf-[F5]f-vl)-NH2 [PPI-1320] | – | Kd (Table II): 1.4 nM |
| TFA•H-(lvf-[p-F]f-l)-NH2 [PPI-1302] | – | Kd (Table II): 0.22 nM |
| TFA•H-(lvffl)-OH [PPI-1261] | 11.2 nM | – |
| TFA·N,N-dimethyl-(lvffl)-NH2 [PPI-1007] | 0.864 nM and 0.627 nM | – |
| TFA•N-methyl-(lvffl)-NH2 [PPI-1019] | – | Kd (Table II): 0.411 nM and 0.534 nM |
| TFA·H-(ivffa)-NH2 [PPI-1039] | 2.44 nM | – |
| TFA • H-l-[pF]f-[pF]f-(nvl)-l-NH2 [PPI-1637] | – | Kd (Table III): 1.8 nM |
| TFA• Me-(lv-[p-F]f-fl)-NH2 [PPI-1784] | – | Kd (Table III): 2.5 nM |
| TFA• Me-(lvff-[nle])-NH2 [PPI-1788] | – | Kd [1]: ~4 nM |
| TFA • H-lvffl-NH-CH2CH2-NH2 [PPI-1465] | – | Kd (Table III): 3.6 nM |
| TFA·N-ethyl-(Giffvl)-NH2 [PPI-1018] | 0.701 nM | – |
| 2TFA •H-LVF-NH-NH-fvl-H [PPI-1621] | – | Kd (Table III): 8.7 nM |
| TFA•H-(lv-[p-F]f-fl)-NH2 [PPI-1785] | – | Kd (Table III): 2.8 nM |
| TFA·N-ethyl-(IvfH)-NH2 [PPI-1022] | 0.15 nM | – |
| TFA • H-lff-(nvl)-l-NH2 [PPI-1635] | – | Kd (Table III): 1.4 nM |
| TFA·H-(lvffa)-isopropylamide [PPI-992] | 2.43 nM | – |
| 2TFA • H-LVF-NH-NH-FVL-H [PPI-1619] | – | Kd (Table III): 35 nM |
| 2 TFA·H-lvf-NH-NH-fvl-H [PPI-1125] | – | Kd (Table II): 1.27 nM and 1.34 nM |

| Substance | Kd (Table I) | also measured |
| --- | --- | --- |
| TFA•H-(lvf-D-Cha-l)-NH2 [PPI-1301] | – | Kd (Table II): 1.1 nM |
| TFA•Me-lvff-[nvl])-NH2 [PPI-1787] | – | Kd (Table III): 5.8 nM |
| TFA·1-piperidine-acetyl-(lvffl)-NH2 [PPI-1088] | 3.4 nM | – |
| TFA·N-ethyl-(Gaffvl)-NH2 [PPI-969] | 1.13 nM | – |
| TFA·H-(Glvffl)-NH2 [PPI-1013] | 0.247 nM | – |
| TFA· Me-(lvffl)-NH-OH [PPI-1800] | – | Kd [1]: ~4 nM |
| TFA·H-( D-Nle-vff- D-Nle)-NH2 [PPI-1042] | 0.234 nM | – |
| TFA•H-(lffvl)-methylamide [PPI-1180] | 0.33 nM | – |
| TFA·N,N-diethyl-(Glvffl)-NH2 [PPI-1028] | 0.49 nM | – |
| 2TFA·H-(lkfvl)-NH2 [PPI-1325] | – | Kd (Table II): 1.4 nM |
| TFA•H-lffvl-isopropylamide [PPI-1094] | 3.7 nM | – |
| TFA-H-lvf-NH-NH2 [PPI-1155] | – | Kd (Table II): 124 nM |
| TFA·H-lvffl-isopropylamide [PPI-1093] | 1.02 nM | – |
| TFA·1-piperidine-acetyl-(lffvl)-NH2 [PPI-1089] | 0.57 nM | – |
| TFA·H-(iiffi)-NH2 [PPI-1040] | 0.408 nM | – |
| TFA•H-(lvffl)-methylamide [PPI-1179] | 0.604 nM | – |
| TFA·N-ethyl-(Glvffl)-NH2 [PPI-1017] | 0.389 nM | – |
| TFA·H-(l-[p-F]f-[p-F]f-vl)-NH2 [PPI-1327] | – | Kd (Table II): 0.82 nM |
| TFA·N-propyl-(lvffl)-NH2 [PPI-1025] | 0.43 nM | – |
| TFA·N,N-dimethyl-(lffvl)-NH2 [PPI-1008] | 1.75 nM | – |
| TFA•H-(lvf-[F5]f-l)-NH2 [PPI-1303] | – | Kd (Table II): 1.1 nM |
| TFA·H-(l-[F5]f-[F5]f-vl)-NH2 [PPI-1328] | – | Kd (Table II): 2.4 nM |
| TFA·H-lvf-NH-NH-Acetyl [PPI-1133] | – | Kd (Table II): 318 nM |
